Measurements from ChEMBL document CHEMBL1255523, “Optimization of N-benzyl-benzoxazol-2-ones as receptor antagonists of macrophage migration inhibitory factor (MIF)” (Bioorg Med Chem Lett, 2010).

Sequences of proteins named here, by UniProt entry; tags and fusion partners are left off. A change or cut given only in a name is not applied to a line headed by its entry.
UniProt P14174: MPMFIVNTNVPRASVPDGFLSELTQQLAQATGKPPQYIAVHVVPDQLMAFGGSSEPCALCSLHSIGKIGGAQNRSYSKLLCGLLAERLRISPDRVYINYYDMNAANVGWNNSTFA
UniProt P04233: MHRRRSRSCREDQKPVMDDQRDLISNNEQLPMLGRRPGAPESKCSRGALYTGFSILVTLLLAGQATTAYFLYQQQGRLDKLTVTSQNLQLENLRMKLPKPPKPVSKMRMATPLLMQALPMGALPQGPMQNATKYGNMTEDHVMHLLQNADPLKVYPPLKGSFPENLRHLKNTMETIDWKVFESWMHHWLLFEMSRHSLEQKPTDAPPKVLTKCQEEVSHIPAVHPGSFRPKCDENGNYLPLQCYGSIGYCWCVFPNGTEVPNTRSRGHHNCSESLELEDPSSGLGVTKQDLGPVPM

Molecular target: MIF/CD74 (Macrophage migration inhibitory factor and HLA-DR antigens-associated invariant chain) (Homo sapiens) (UniProt P14174+P04233)
Assay: Inhibition of human recombinant biotinylated MIF/CD74 interaction at up to 10 uM after 30 mins
Assay type: protein assay
Outline: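 Bound MIF was detected with streptavidin-alkaline phosphatase and p-nitrophenylphosphate substrate. Compounds were tested over 500- to 5000-fold concentration ranges.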

Compound | inhibition [%]
O=c1oc2ccc(O)cc2n1Cc1ccccc1 | 23
Cc1ccc2oc(=O)n(Cc3cccc(F)c3)c2c1 | 14
Cc1ccc2oc(=O)n(Cc3ccc(O)cc3)c2c1 | 10
COc1cccc(Cn2c(=O)oc3ccc(F)cc32)c1 | 17
